Assay results from patent publication US10155733B2, “N-aralkylcarbonyl-piperazine and -homopiperazine compounds and personal care compositions comprising the same” (Conopco, Inc., priority 2015, dated 2018).

Experiment: pH measurements of test compound solutions
Format: physicochemical
Settings: for Measured pH of solution: 79 mM (equimolar) in isopropyl alcohol/water, 22° C.; for pH of a 2.5% solution: 2.5% solution (weight/volume); for pH reduction relative to non-amido compound: equimolar solutions, versus non-amido piperazine (14) or homopiperazine (15); for pH unit decrease relative to corresponding secondary amine compound: secondary amine to tertiary amine, equimolar / 2.5% solutions
Experimental: Equimolar amounts of test compounds were used instead of weight % amounts to ensure a fair (molar-basis) comparison between test compounds. […] The pH of all test solutions was measured @ 22° C. using a Corning pH meter model 430 with a flat surface combo w/RJ electrode. The pH meter was calibrated using standard pH 7 & 12 buffers.

Row | SMILES | Measured pH of solution | pH of a 2.5% solution | pH reduction relative to non-amido compound [pH units] | pH unit decrease relative to corresponding secondary amine compound [pH units]
1 | CN1CCCN(C(=O)C(O)(c2ccccc2)C2CCCC2)CC1 (centres unmarked) | 9.0 | 9.0 | 2.45 | 0.9
2 | CN1CCN(C(=O)C(O)(c2ccccc2)C2CCCC2)CC1 (centres unmarked) | 8.5 | 8.5 | 2.5 | 1.5
